Tested on: 2F2B mouse endothelial cells
Test: XTT cell viability assay (cytotoxicity of peptides)
Format: cell-based
Details: 2F2B cells, 3 hours of treatment at 37° C.
Experimental: For each peptide, cytotoxicity was assessed in 2F2B mouse endothelial cells by the XTT cell viability assay (Biotium, Hayward, Calif.). Cells were seeded in 96-well plates at 10,000 cells/well 24 hours before treatment with melittin and mutated melittins at selected concentrations. After 3 hours of treatment at 37° C., 25 μl of activated XTT solution was added to each well and incubated at 37° C. for 5 hours. After 5 hours of incubation, plates were gently shaken to achieve even dye distribution. The absorbances of the samples were measured by a microplate reader (Biorad, Model 550, Hercules, Calif.) at a wavelength of 450 nm. Background was subtracted and the results were normalized to untreated control cells.

CC[C@H](C)[C@H](NC(=O)CN)C(=O)NCC(=O)N[C@@H](C)C(=O)N[C@H](C(=O)N[C@@H](CC(C)C)C(=O)N[C@@H](CCCCN)C(=O)N[C@H](C(=O)N[C@@H](CC(C)C)C(=O)N[C@H](C(=O)N[C@H](C(=O)NCC(=O)N[C@@H](CC(C)C)C(=O)N1CCC[C@H]1C(=O)N[C@@H](C)C(=O)N[C@@H](CC(C)C)C(=O)N[C@H](C(=O)N[C@@H](CO)C(=O)N[C@@H](Cc1c[nH]c2ccccc12)C(=O)N[C@H](C(=O)N[C@@H](CCCCN)C(=O)N[C@@H](CCCNC(=N)N)C(=O)N[C@@H](CCCCN)C(=O)N[C@@H](CCCNC(=N)N)C(=O)N[C@@H](CCC(N)=O)C(=O)N[C@@H](CCC(N)=O)C(N)=O)[C@@H](C)CC)[C@@H](C)CC)[C@@H](C)O)[C@@H](C)O)C(C)C)C(C)C [MMLT, reference compound]
IC50: 2360 ± 230 nM
